# Experimental data: patent US20150377888A1, “Methods for Predicting and Preventing Metastasis in Triple Negative Breast Cancers” (INSERM (INSTITUT NATIONAL DE LA SANTÉ ET DE LA RECHERCHE …, priority 2013, published 2015)
# Experiments:
# Type in all cases: cell-based, human
# EGFR [1] = assay: EGFR phosphorylation at Tyr845 / CD95-driven EGFR activation; settings: breast cancer cells
# Experimental: Cells were lysed for 30 min at 4° C. in lysis buffer [25 mM HEPES (pH 7.4), 1% v/v Triton X-100, 150 mM NaCl, and 2 mM EGTA supplemented with a mix of protease inhibitors (Sigma-Aldrich)]. Protein concentration was determined by the bicinchoninic acid method (PIERCE, Rockford, Ill., USA) according to the manufacturer's protocol. Proteins were separated by SDS-PAGE and transferred to a nitrocellulose membrane (GE Healthcare, Buckinghamshire, England). The membrane was blocked for 15 min with TBST (50 mM Tris, 160 mM NaCl, 0.05% v/v Tween 20, pH 7.8) containing 5% w/v dried skimmed milk (TBSTM) and then incubated overnight with primary antibody at 4° C. in TBSTM. The membrane was intensively washed (TBST) and peroxidase-labeled anti-rabbit or anti-mouse (SouthernBiotech, Birmingham, Ala., US) was added for 45 min. The proteins were visualized with the enhanced chemiluminescence substrate kit (ECL, GE Healthcare).
# EGFR [2] = assay: Ca2+ monitoring: EGF-induced Ca2+ response; settings: TNBC cells (MDA-MB-231) in presence of EGF
# Experimental: For experiments on parent cell lines, breast cancer cells were loaded with Fura2-PE3-AM (1 μM) at room temperature for 30 min in Hank's Balanced Salt Solution (HBSS). […] To minimize UV light exposure, a 4×4 binning function was used. Fura2-AM was alternately excited at 340 and 380 nm, and the ratios of the resulting images (excitations at 340 and 380 nm and emission filter at 520 nm) were produced at constant intervals (10 seconds). […] Fratio reflects the intracellular Ca^2+ concentration changes. Each experiment was repeated 3 times, and for each experimental condition, the average of more than 20 single-cell traces was used.
# [3] = system: TNBC breast cancer cell lines (Hs578T, MDA-MB-231 and MDA-MB-468); assay: In vitro motility assay (Boyden chambers); settings: cells pre-treated with the agent (inhibitors at non-cytotoxic amounts)
# Experimental: Boyden chambers (Millipore, Molsheim, France) containing 8 μm pore membranes were cultured in 24-well plates. After hydration of the membranes, 10^5 cells were added to the top chamber in low serum (1%)-containing medium. […] Cells were cultured for 24 h at 37° C. in a 5% CO2 humidified incubator. To quantify invasion, cells were fixed with methanol and stained with Giemsa. Stained cells were then removed from the top side of the membrane using a cotton-tipped swab and five representative pictures for each insert were taken of the invading cells from the reverse side. For each experiment, cells were lysed and absorbance at 560 nm was measured.
substance,measurement,setting,value
cetuximab: antibody that binds to EGFR ectodomain and prevents its interaction with EGF,effect on CD95-driven EGFR activation,EGFR [1],does not impair
same,effect on EGF-induced Ca2+ response,EGFR [2],abrogated
same,effect on migration of TNBC cells exposed to cl-CD95L,[3],did not alter
